Source: patent publication US9814784B2, “Antibody-linker-drug conjugate, preparation method therefor, and anticancer drug composition containing same” (priority 2013, dated 2017)

What was measured:
[1] = Pharmacokinetic (PK) assay; parameters: species or system Balb/c Slc-nu mice; conditions: mouse, in vivo, iv, 20 mg/kg
[2] = test system: HER-2-overexpressing breast cancer cells (BT-474); test: Efficacy study in animal model (xenograft); assay type: in vivo, nude mice; conditions: single i.v. injection, trastuzumab vs PBS
Method: For 56 days after injection, the volumes and final weights of the tumors were monitored.
(§1) Separately, the antibody-linker-drug conjugate (I-16), prepared in Preparation Examples 12, was intravenously injected once at three different doses (0.05, 0.5, and 5 mg/kg) into nude mice which were previously xenografted with HER-2-overexpressing breast cancer cells (BT-474). For 28 days after injection, volumes and final weights of the tumors were monitored.
as §1, with “In addition,” for “Separately,”, “conjugates (I-23), (1-25), and (I-26),” for “conjugate (I-16),”, “prepared respectively” for “prepared”, “19, 21, and 22, were” for “12, was”, “injection, the” for “injection,”
In another experiment, nude mice xenografted with HER-2-overexpressing breast cancer cell line (BT-474) were intravenously injected once with three difference doses (0.05, 0.5, and 5 mg/kg) of the antibody-linker-drug conjugate (I-34), prepared in Preparation Example 30. For 28 days after injection, the volumes and final weights of the tumors were monitored.

trastuzumab
C0 [1]: 379.9 µg/mL | tumor size (volume and final weight) ([2]; conjugates 0.05, 0.5 and 5 mg/kg, trastuzumab 5 mg/kg, 28 days): significantly reduced tumor sizes; also recorded: significant reduction in tumor size | tumor size (volume and final weight) ([2]; conjugates 1.25, 5 and 20 mg/kg, trastuzumab 20 mg/kg, 56 days): reduced significantly

“Also recorded” adds a separate entry of the source.
